From ChEMBL document CHEMBL3352260, “Identification and development of biphenyl substituted iminosugars as improved dual glucosylceramide synthase/neutral glucosylceramidase inhibitors” (J Med Chem, 2014)

Protein sequences, listed by entry. Tags and fused reporters are not part of them. Lines headed by an entry give the natural chain unless they say otherwise; changes in a name come on top. Residues count along the entry.
UniProt P14410, 2-1007 limits assumed: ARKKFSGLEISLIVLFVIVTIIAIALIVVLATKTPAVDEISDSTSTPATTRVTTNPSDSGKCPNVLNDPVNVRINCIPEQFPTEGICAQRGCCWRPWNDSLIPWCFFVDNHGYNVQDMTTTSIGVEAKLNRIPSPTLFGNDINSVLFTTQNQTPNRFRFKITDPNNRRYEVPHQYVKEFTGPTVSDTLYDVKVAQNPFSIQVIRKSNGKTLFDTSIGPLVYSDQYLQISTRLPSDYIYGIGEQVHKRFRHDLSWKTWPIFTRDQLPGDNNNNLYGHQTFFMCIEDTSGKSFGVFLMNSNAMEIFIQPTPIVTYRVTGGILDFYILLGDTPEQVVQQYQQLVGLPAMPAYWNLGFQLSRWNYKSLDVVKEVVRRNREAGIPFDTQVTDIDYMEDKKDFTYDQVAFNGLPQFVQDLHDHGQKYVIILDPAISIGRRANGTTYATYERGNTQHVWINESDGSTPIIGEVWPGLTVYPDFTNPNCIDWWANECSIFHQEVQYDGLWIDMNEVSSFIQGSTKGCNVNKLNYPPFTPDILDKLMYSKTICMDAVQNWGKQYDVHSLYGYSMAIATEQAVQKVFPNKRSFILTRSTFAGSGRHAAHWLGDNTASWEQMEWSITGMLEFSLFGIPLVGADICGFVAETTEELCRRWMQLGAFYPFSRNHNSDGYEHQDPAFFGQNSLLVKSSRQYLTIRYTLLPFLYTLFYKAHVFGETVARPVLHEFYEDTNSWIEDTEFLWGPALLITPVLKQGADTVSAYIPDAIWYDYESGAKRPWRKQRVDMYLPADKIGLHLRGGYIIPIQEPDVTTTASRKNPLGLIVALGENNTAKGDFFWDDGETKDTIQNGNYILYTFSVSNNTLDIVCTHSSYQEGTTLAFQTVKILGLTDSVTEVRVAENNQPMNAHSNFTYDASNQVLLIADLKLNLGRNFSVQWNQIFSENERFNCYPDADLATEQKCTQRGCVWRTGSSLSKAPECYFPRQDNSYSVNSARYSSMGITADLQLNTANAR
UniProt P14410, 1008-1827 limits assumed: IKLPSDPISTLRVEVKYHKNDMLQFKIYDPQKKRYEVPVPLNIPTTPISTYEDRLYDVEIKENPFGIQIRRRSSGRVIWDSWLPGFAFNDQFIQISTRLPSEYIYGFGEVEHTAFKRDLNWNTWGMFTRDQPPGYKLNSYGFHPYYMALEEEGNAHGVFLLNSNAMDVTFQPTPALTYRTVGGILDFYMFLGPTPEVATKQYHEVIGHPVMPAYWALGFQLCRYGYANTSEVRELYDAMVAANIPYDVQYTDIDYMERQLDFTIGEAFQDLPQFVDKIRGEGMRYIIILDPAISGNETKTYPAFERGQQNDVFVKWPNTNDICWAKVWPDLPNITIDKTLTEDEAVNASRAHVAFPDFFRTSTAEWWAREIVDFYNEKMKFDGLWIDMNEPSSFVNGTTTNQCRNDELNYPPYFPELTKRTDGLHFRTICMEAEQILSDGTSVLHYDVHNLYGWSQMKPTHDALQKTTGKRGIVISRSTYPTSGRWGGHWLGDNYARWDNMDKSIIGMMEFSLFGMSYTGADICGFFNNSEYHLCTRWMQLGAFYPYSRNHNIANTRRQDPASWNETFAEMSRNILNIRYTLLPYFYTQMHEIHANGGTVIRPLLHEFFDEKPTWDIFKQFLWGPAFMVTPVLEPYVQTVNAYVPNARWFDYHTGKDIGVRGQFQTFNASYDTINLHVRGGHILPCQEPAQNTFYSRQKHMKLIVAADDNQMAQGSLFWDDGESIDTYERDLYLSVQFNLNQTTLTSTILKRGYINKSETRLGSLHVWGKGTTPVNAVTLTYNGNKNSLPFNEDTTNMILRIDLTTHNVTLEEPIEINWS
UniProt O43451: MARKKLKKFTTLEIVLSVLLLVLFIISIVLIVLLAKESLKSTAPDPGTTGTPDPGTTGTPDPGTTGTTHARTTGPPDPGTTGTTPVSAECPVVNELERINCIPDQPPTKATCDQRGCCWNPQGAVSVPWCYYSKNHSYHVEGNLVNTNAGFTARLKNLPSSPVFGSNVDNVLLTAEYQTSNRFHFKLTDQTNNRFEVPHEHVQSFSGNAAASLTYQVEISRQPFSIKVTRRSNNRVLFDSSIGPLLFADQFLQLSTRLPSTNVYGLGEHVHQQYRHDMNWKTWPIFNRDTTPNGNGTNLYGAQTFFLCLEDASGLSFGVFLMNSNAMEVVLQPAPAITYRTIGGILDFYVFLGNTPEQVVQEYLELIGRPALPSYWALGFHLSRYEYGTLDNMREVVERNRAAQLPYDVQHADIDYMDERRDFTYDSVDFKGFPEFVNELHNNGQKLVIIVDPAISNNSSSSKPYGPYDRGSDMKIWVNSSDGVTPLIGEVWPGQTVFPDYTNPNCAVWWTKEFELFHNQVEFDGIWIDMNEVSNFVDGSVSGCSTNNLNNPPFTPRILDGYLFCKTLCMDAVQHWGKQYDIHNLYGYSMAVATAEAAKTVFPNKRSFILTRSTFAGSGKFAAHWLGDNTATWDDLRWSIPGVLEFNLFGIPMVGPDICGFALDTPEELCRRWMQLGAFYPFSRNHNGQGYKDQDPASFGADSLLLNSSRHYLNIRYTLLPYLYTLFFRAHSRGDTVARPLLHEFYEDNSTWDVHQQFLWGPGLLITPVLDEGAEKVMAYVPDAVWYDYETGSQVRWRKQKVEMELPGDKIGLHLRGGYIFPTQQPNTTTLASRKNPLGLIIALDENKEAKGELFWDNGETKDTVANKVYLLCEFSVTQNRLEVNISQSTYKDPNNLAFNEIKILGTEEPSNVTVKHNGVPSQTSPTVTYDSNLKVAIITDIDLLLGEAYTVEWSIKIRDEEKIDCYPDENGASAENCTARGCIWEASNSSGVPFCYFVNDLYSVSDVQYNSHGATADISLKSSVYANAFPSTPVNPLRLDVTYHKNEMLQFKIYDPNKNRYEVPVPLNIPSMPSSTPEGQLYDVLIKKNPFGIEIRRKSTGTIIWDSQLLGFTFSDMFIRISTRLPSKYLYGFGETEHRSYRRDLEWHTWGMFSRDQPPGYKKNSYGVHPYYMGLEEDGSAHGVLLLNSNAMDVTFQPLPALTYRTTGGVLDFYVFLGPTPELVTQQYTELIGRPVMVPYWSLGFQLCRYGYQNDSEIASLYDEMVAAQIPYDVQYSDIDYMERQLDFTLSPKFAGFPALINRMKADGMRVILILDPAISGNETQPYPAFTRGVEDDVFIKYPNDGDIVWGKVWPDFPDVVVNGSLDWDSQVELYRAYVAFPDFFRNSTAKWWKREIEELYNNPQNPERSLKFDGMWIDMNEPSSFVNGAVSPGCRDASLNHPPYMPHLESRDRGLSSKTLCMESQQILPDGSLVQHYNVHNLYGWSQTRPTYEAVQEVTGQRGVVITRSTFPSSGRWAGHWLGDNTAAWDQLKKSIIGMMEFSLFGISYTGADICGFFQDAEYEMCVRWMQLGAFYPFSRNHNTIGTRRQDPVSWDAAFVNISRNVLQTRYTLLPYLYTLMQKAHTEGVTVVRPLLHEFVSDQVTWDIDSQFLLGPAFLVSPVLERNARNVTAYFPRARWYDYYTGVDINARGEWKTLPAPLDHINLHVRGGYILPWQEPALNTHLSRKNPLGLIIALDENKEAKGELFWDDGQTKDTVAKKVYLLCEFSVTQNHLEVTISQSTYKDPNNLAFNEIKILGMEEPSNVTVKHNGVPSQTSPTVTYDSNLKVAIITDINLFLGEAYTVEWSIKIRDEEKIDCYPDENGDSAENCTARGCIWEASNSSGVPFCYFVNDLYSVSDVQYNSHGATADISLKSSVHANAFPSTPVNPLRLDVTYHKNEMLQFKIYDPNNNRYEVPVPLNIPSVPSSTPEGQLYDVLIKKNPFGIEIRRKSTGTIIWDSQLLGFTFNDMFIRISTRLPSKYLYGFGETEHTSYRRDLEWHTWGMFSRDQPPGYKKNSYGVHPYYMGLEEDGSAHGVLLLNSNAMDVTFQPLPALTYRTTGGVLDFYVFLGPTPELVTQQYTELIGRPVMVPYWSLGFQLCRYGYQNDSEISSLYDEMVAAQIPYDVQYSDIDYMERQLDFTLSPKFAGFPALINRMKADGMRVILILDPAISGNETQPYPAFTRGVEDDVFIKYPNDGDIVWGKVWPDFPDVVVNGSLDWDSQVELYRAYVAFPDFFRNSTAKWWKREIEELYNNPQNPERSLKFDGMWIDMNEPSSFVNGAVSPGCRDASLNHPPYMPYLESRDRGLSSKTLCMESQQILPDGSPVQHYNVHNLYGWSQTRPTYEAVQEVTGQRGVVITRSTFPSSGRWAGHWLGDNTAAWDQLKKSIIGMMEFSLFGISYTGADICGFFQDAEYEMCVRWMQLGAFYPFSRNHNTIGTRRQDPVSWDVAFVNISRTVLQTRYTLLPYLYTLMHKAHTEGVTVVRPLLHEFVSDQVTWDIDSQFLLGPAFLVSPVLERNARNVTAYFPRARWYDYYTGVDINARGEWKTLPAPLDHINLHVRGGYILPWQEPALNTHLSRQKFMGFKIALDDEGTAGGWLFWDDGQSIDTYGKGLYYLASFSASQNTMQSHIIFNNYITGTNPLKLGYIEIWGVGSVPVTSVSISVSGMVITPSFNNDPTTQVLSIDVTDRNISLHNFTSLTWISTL

Assays:
[1] = target: T1, Ceramide glucosyltransferase (Homo sapiens, UniProt Q16739)
T1 sequence (Q16739 whole entry): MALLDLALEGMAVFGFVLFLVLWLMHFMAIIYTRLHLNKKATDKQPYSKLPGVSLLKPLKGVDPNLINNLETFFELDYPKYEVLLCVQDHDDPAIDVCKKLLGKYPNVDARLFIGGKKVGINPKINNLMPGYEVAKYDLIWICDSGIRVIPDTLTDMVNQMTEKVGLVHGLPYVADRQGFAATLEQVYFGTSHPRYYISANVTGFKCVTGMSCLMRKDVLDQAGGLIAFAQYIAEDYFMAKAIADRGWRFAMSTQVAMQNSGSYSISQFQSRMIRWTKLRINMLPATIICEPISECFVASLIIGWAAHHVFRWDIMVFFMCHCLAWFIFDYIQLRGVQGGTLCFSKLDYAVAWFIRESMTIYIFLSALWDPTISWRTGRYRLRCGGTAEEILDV

[2] = target: Sucrase-isomaltase, intestinal (Homo sapiens, UniProt P14410); assay: Inhibition of intestinal sucrase (unknown origin)
Maltase-glucoamylase = Maltase-glucoamylase (Homo sapiens, UniProt O43451); assay: Inhibition of intestinal maltase (unknown origin)

Row | IC50 [1] [nM] | IC50 [2] [nM] | IC50 (Maltase-glucoamylase) [nM] | SMILES
1 | 70 |  |  | C[C@H](OCCCCCN1C[C@H](O)[C@@H](O)[C@H](O)[C@H]1CO)c1ccc(-c2ccccc2)cc1
2 |  | 600 | 3000 | OC[C@@H]1[C@@H](O)[C@H](O)[C@@H](O)CN1CCCCCOCC12CC3CC(CC(C3)C1)C2
3 |  | > 100000 | > 500000 | OC[C@H]1[C@@H](O)[C@H](O)[C@@H](O)CN1CCCCCOCC12CC3CC(CC(C3)C1)C2
4 | 60 |  |  | C[C@@H](OCCCCCN1C[C@H](O)[C@@H](O)[C@H](O)[C@H]1CO)c1ccc(-c2ccccc2)cc1
